Test results: ChEMBL document CHEMBL2074145, “Active transport of fluorescent P-glycoprotein substrates: evaluation as markers and interaction with inhibitors” (Biochem Biophys Res Commun, 2001)

Protein sequences, listed by entry. Tags and fused reporters are not part of them.
UniProt P08183, whole entry: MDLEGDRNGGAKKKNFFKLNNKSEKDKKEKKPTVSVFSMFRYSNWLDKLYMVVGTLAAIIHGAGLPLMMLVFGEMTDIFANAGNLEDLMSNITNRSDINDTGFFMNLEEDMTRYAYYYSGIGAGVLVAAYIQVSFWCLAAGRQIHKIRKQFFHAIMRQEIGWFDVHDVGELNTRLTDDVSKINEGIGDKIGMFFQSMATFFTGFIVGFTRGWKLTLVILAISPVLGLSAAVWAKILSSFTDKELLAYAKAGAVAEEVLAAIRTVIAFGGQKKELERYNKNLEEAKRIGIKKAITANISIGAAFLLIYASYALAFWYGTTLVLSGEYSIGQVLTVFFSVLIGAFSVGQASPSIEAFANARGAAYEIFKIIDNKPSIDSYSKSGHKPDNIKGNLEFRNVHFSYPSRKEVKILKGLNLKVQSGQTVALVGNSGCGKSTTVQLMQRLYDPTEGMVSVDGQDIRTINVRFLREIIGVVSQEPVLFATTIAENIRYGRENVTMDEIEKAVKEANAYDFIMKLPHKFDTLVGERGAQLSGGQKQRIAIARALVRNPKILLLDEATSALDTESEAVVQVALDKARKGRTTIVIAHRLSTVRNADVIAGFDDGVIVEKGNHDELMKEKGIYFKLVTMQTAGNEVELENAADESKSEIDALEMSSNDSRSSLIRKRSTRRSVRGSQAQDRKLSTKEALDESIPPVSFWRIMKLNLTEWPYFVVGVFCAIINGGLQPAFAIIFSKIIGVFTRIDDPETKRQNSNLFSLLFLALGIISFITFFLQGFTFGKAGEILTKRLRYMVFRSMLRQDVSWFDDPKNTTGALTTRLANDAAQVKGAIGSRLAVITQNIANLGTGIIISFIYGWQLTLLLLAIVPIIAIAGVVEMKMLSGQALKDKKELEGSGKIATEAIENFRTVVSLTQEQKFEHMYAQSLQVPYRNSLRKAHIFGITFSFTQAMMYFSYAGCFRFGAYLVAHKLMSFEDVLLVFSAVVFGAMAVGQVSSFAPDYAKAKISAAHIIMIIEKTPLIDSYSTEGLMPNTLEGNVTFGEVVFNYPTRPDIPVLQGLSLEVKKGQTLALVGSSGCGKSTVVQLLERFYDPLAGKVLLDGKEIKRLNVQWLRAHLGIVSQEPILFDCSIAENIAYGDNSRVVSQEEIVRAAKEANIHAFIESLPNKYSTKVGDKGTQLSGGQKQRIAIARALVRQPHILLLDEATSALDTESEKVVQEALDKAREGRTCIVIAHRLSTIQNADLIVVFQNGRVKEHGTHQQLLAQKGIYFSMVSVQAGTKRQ

Assays:
[1] = target: T1, ATP-dependent translocase ABCB1 (Homo sapiens, UniProt P08183)
[2] = target: T1, ATP-dependent translocase ABCB1; remark: listed apart in the source
[3] = target: T1, ATP-dependent translocase ABCB1; remark: listed apart in the source
[4] = target: T1, ATP-dependent translocase ABCB1; remark: listed apart in the source
[5] = target: T1, ATP-dependent translocase ABCB1; remark: listed apart in the source
[6] = target: T1, ATP-dependent translocase ABCB1; remark: listed apart in the source
[7] = target: T1, ATP-dependent translocase ABCB1; remark: listed apart in the source

- IC50 [1]: > 25.8 µM
- IC50 [2]: 5.6 µM
- IC50 [3]: 3.2 µM
- IC50 [4]: 11.7 µM
- IC50 [5]: 7.1 µM
- IC50 [6]: 14.6 µM
- IC50 [7]: 6.6 µM
SMILES: COC(=O)C1=C(C)NC(C)=C(C(=O)OCCN(C)Cc2ccccc2)C1c1cccc([N+](=O)[O-])c1 (configuration not stated) [NICARDIPINE]
